# Melting point values, as collected for the OPERA models

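The OPERA project collected these measurements from public sources as training and test data for property models. A listed value is a point estimate from one report or more. How each value was measured is not recorded, so precision varies. Where a salt, mixture or single isomer is drawn, the source does not say that exactly this form was tested. Some entries may be limits or estimates that an upstream database listed as plain numbers.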

The melting point is given in degrees Celsius.
The databases behind each value are named after "via".

For Cc1ccc(-n2c(C)cc(CC(=O)O)c2C)cc1 [1H-Pyrrole-3-acetic acid, 2,5-dimethyl-1-(4-methylphenyl)-] the data give mp 51 °C (via OCHEM). The entry for CN(c1ccc(O)cc1)S(=O)(=O)c1ccccc1 [N-(4-Hydroxyphenyl)-N-methylbenzenesulfonamide] lists mp 132 °C (via OCHEM). O=c1cc(-c2ccccc2)c2cc(Cl)c(O)cc2o1 [6-chloro-7-hydroxy-4-phenyl-2H-chromen-2-one] has mp 261 °C (via OCHEM). Listed for NC(=O)NC(CC(=O)O)c1ccc(Cl)cc1 (centres undefined) [3-(Carbamoylamino)-3-(4-chlorophenyl)propanoic acid]: mp 199 °C (via OCHEM). The entry for O=S(CCCl)c1ccccc1 (centres undefined) [[(2-Chloroethyl)sulfinyl]benzene] lists mp 35 °C (via OCHEM).

OCc1ccc2ccccc2n1 [2-Hydroxymethylquinoline] has mp 183 °C (via OCHEM). COc1ccc(-n2c(C)cc(C(=O)O)c2C)cc1 has mp 233 °C (via OCHEM). For CC(=O)c1cccc(OCC(=O)O)c1 [(3-Acetylphenoxy)acetic Acid] the data give mp 120 °C (via OCHEM). The entry for O=c1nc[nH]c2ncccc12 [4-Hydroxypyrido (2,3-d)pyrimidine] lists mp 250 °C (via OCHEM). The entry for Cc1ccc(C(C)NC(=O)CCl)cc1C (centres undefined) [2-chloro-N-[1-(3,4-dimethylphenyl)ethyl]acetamide] lists mp 197 °C (via OCHEM).

The entry for Cn1c(=O)c2ccccc2n2cc3ccccc3c12 [6-Methylisoindolo[2,1-a]quinazolin-5(6H)-one] lists mp 165 °C (via OCHEM). Listed for NS(=O)(=O)c1ccc(NC(=O)CCl)cc1 [2-chloro-N-(4-sulfamoylphenyl)acetamide]: mp 157 °C (via OCHEM). S=c1[nH]nc(NC2CCCCC2)s1 [5-cyclohexylamino-[1,3,4]thiadiazole-2-thiol] has mp 145 °C (via OCHEM). Listed for O=C(O)c1cc(=O)n(-c2ccccc2)[nH]1 [5-oxo-1-phenyl-2,5-dihydro-1H-pyrazole-3-carboxylic acid]: mp 257 °C (via OCHEM). CC(C)(C)NC(=O)c1ccc(N)cc1 [4-amino-N-(tert-butyl)benzamide] has mp 125 °C (via OCHEM).

CC(C)(C)OC(=O)N1CCc2nc(N)sc2C1 is reported with mp 227 °C (via OCHEM). Listed for O=Cc1cnn(-c2ccc(Br)cc2)c1 [1-(4-bromophenyl)-1H-pyrazole-4-carbaldehyde]: mp 125 °C (via OCHEM). O=c1c2cc(Cl)ccc2nc2n1CCC2 [7-Chloro-2,3-dihydropyrrolo[2,1-b]quinazolin-9(1H)-one] is reported with mp 181 °C (via OCHEM). CC(=O)Nc1cc(NC(C)=O)cc(C(=O)O)c1 [Benzoic acid, 3,5-bis(acetylamino)-] is reported with mp 188 °C (via OCHEM). O=c1[nH]nc(-c2ccco2)o1 [5-(Furan-2-yl)-1,3,4-oxadiazol-2(3H)-one] is reported with mp 112 °C (via OCHEM).

O=C(O)c1cc(C2CC2)nc2ccccc12 [2-cyclopropylquinoline-4-carboxylic acid] has mp 209 °C (via OCHEM). The entry for O=C(O)C=Cc1cn(-c2ccccc2)nc1-c1ccc(F)cc1 lists mp 230 °C (via OCHEM). COc1ccc(-c2n[nH]c(=S)[nH]c2=O)cc1 has mp 285 °C (via OCHEM). For S=c1[nH]nc(-c2cccs2)n1-c1ccccc1 the data give mp 270 °C (via OCHEM). Listed for NS(=O)(=O)c1ccc(F)c(Cl)c1 [3-chloro-4-fluorobenzenesulfonamide]: mp 108.5 °C (via OCHEM).

Cc1ccccc1CCNC(=O)CCl [2-Chloro-N-[2-(2-methylphenyl)ethyl]acetamide] is reported with mp 69 °C (via OCHEM). CCCCCCCCCCCCCCOC(=O)CCCCCCCCCCC [Dodecanoic acid, tetradecyl ester] is reported with mp 37.11 °C (via eChemPortal). The entry for COc1cc(OCc2ccccc2)ccc1C=O [4-Benzyloxy-2-methoxybenzaldehyde] lists mp 95.5 °C (via OCHEM). O=C(O)C12CC3CC(C1)CC(c1ccccc1)(C3)C2 [3-Phenyladamantane-1-carboxylic acid] is reported with mp 162 °C (via OCHEM). The entry for Cc1ccc2nc(CCl)cc(=O)n2c1 [2-(Chloromethyl)-7-methyl-4H-pyrido[1,2-a]pyrimidin-4-one] lists mp 137 °C (via OCHEM).

The first 4 entries again:

{"smiles": "Cc1ccc(-n2c(C)cc(CC(=O)O)c2C)cc1", "name": "1H-Pyrrole-3-acetic acid, 2,5-dimethyl-1-(4-methylphenyl)-", "mp (°C)": "51", "via": "OCHEM"}
{"smiles": "CN(c1ccc(O)cc1)S(=O)(=O)c1ccccc1", "name": "N-(4-Hydroxyphenyl)-N-methylbenzenesulfonamide", "mp (°C)": "132", "via": "OCHEM"}
{"smiles": "O=c1cc(-c2ccccc2)c2cc(Cl)c(O)cc2o1", "name": "6-chloro-7-hydroxy-4-phenyl-2H-chromen-2-one", "mp (°C)": "261", "via": "OCHEM"}
{"smiles": "NC(=O)NC(CC(=O)O)c1ccc(Cl)cc1", "stereo": "centres undefined", "name": "3-(Carbamoylamino)-3-(4-chlorophenyl)propanoic acid", "mp (°C)": "199", "via": "OCHEM"}

Source: data files of OPERA 2.9 (Mansouri et al.), github.com/kmansouri/OPERA.